Patent publication US7045533B2, “Naphthalene derivatives” (Novartis AG, priority 2000, dated 2006)

Chains of the proteins cited; added tags and fusions are not shown.
UniProt P21554, whole entry: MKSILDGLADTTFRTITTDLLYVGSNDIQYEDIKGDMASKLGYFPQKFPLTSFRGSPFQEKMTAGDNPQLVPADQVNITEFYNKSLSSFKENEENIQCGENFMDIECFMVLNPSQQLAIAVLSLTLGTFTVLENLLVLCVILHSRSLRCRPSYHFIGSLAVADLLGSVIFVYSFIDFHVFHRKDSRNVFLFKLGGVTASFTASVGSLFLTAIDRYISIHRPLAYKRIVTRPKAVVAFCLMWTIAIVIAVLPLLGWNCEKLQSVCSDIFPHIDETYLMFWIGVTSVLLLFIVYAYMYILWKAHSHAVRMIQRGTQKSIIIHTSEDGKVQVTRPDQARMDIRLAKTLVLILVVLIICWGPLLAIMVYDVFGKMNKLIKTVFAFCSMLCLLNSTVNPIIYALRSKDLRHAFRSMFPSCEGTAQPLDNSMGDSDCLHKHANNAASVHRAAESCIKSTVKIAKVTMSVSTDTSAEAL

Biological target: T1, human CB1 receptors (Homo sapiens, UniProt P21554)
T1 construct: purchased Receptor Biology, Beltsville, Md; host or cells: pEAK cells (transfected)
Experiment: Test I: CB1 Receptor Binding Assay
Settings: [3H]CP55940 displacement, membranes from pEAK cells transfected with human CB1 receptors; Ki calculated from IC50 (Cheng-Prussoff); read-out: K1

CCCCCOc1ccc(C(=O)c2cccc3ccccc23)c2ccccc12 [Example 1, naphthalen-1-yl-(4-pentyloxy-naphthalen-1-yl)-methanone]
Ki: 15 ± 4 nM
